Source: paper PMC7460837 (International Journal of Molecular Sciences, 2020)

Target: T1, Recombinant Bet v 1 (Bet v 1.0101) (Betula verrucosa, UniProt P15494 1-160)
T1 construct: Major birch pollen allergen Bet v 1, isoallergen Bet v 1.0101, from Betula verrucosa; In the internalisation assay it carried pHrodo Green (STP ester labelling, dye:protein about 10:1); also called major birch pollen allergen; source: E. coli, recombinant, as previously described [51,52]
T1 sequence (looked up): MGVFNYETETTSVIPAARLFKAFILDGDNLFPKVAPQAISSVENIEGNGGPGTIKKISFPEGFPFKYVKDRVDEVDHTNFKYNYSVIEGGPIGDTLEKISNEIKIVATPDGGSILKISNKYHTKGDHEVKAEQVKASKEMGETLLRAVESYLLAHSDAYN
Experiment: far-Western, overlay or dot blot; Bet v 1 (0.5, 1 and 5 µg) and BLG (1 µg) spotted on nitrocellulose; strips incubated with antibody at 1 µg/mL in PBS with 0.1% Tween 20 for 1 h, room temperature; HRP-labelled anti-isotype detection
Details: both partners purified

B1: M0418 IgE (antibody)
heavy: QVQLVQSGAEVKKPGESLKISCKGSEYSFPNYWIAWVRQMPGKGLEWMGMIYPGDSDTRYSPSFQGQVNISADKSSRTAFLEWSSLKASDSATYFCARLGGQLWNSYYYYYYMDVWGKGTTVTVSSASTQSPSVFPLTRCCKNIPSNATSVTLGCLATGYFPEPVMVTWDTGSLNGTTMTLPATTLTLSGHYATISLLTVSGAWAKQMFTCRVAHTPSSTDWVDNKTFSVCSRDFTPPTVKILQSSCDGGGHFPPTIQLLCLVSGYTPGTINITWLEDGQVMDVDLSTASTTQEGELASTQSELTLSQKHWLSDRTYTCQVTYQGHTFEDSTKKCADSNPRGVSAYLSRPSPFDLFIRKSPTITCLVVDLAPSKGTVNLTWSRASGKPVNHSTRKEEKQRNGTLTVTSTLPVGTRDWIEGETYQCRVTHPHLPRALMRSTTKTSGPRAAPEVYAFATPEWPGSRDKRTLACLIQNFMPEDISVQWLHNEVQLPDARHSTTQPRKTKGSGFFVFSRLEVTRAEWEQKDEFICRAVHEAASPSQTVQRAVSVNPGK
light: SYELTQPPSASGTPGQRVTISCSGSSSNIGGNTVNWYQQVPGTAPRLLIYKNNQRPSGVPDRFSGSKSGTSASLAISGLRSEDEADYYCEAWDGGLRGGVFGGGTKLTVLGKRTVAAPSVFIFPPSDEQLKSGTASVVCLLNNFYPREAKVQWKVDNALQSGNSQESVTEQDSKDSTYSLSSTLTLSKADYEKHKVYACEVTHQGLSSPVTKSFNRGEC
- binding result: binds
